# Reference: ChEMBL document CHEMBL3769315 (J Med Chem, 2016)
# Settings: human, huh-7
row,Compound,CC50
1,CN1CCN(C(c2ccc(Cl)cc2)c2ccc(Cl)cc2)CC1,21.3 µM
2,CN1CCN(C(c2ccccc2)c2ccccc2)CC1 [CYCLIZINE],> 100 µM
3,Brc1ccc(C(c2ccccc2)N2CCNCC2)cc1 (racemic),7.93 µM
4,CCN1CCN(C(c2ccccc2)c2ccc(Br)cc2)CC1 (racemic),35.2 µM
5,NCCOCCOCCOCCOCCN1CCN(C(c2ccc(Cl)cc2)c2ccc(Cl)cc2)CC1,4.43 µM
